Test results published in paper PMC3391290.

Assays:
[1] = target: human TSH receptor, wild type (hTSHR) (human) (UniProt P16473)
[2] = target: human TSH receptor, wild type (hTSHR) (human) (UniProt P16473); experiment: radioligand binding; radioreceptor assay: membrane preparation (10 µg) of the HEK293-hTSHR stable line, unlabelled hTSH/bTSH varied against 0.14 nM 125I-hTSH/bTSH, 37°C, 2 h, 250 µl, PEG 6000 separation; Kd by Cheng-Prusoff for the homologous tracer

Substance | EC50 of total cellular cAMP (RIA), HEK293-hTSHR cells, 15 min at 37°C [1] | Kd [2]
bovine thyroid stimulating hormone (bTSH) (from UniProt P01217 25-120; P01223 21-132) (ligand) | 0.07 nM | –
bovine thyroid stimulating hormone (bTSH) (from UniProt P01217 25-120; P01223 21-132) (ligand; other documents disagree on this pair) | – | 0.24 nM
